In the test the target is GSK-3β (Homo sapiens, UniProt P49841). The test can be described thus: Assay for GSK-3β inhibiting activity (32P-ATP, phospho-CREB peptide substrate, filter paper, CPM). The following applies: 100 nM GSK-3β protein, 100 μM phospho-CREB peptide, 100 μM ATP, 30° C. for 1 hour.

Sequences of proteins named here, by UniProt entry; tags and fusion partners are left off.
UniProt P49841, whole entry: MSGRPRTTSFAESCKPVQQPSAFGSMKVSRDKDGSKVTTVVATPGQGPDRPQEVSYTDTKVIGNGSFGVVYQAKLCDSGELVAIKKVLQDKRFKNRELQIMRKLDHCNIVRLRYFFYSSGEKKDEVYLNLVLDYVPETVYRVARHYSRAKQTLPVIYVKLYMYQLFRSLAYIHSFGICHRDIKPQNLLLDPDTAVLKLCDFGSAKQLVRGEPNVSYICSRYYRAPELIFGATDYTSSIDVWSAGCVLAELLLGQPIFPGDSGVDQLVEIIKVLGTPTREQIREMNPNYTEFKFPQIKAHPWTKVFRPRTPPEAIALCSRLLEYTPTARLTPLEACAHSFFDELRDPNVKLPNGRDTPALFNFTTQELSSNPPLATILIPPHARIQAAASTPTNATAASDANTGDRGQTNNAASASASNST

Where only a bound is given, the exact number is not on record here.

Here are results for five compounds from patent US7179832B2, “Glycogen synthase kinase 3β inhibitor, composition and process for the preparation thereof” (Crystalgenomics, Inc., priority 2003, dated 2007).

Compound `O=C(c1ccc(O)c2[nH]c(-c3ccc(Cl)cc3)nc12)N1CCCCC1` gave a concentration for half-maximal inhibition (IC50) greater than 5000 nM.
`O=C(Nc1ccc(O)cc1)c1ccc(O)c2[nH]c(-c3ccccc3)nc12` came in with an IC50 greater than 1000 nM.
With `NC(=O)c1ccc(O)c2[nH]c(-c3ccc(Cl)cc3Cl)nc12`, the 50% inhibitory concentration (IC50) is greater than 5000 nM.
Under `O=C(Nc1ccccc1)c1ccc(O)c2[nH]c(-c3ccccc3)nc12` stands greater than 1000 nM; under `O=C(Nc1ccc(CCO)cc1)c1ccc(O)c2[nH]c(-c3ccccc3)nc12`, greater than 1000 nM.

One may read the IC50 as the midpoint of a concentration-inhibition curve. Read a low IC50 as higher potency.
